Data reported in paper PMC3586182 (Clinical Drug Investigation, 2012).

Details: healthy volunteers, 5 mg/kg 4-h IV infusion, either formulation

Substance: ciclosporin
- Changes in laboratory values or ECG-findings: no clinically significant or consistent changes
